The values that follow are results of earlier work, collected in patent US10501414B2, “Indole analogs as 5-oxo-ETE receptor antagonists and method of use thereof” (THE ROYAL INSTITUTION FOR THE ADVANCEMENT OF …, priority 2015, dated 2019).

By UniProt entry, the sequences of proteins in these tests, tags left out.
UniProt Q8TDS5, whole entry: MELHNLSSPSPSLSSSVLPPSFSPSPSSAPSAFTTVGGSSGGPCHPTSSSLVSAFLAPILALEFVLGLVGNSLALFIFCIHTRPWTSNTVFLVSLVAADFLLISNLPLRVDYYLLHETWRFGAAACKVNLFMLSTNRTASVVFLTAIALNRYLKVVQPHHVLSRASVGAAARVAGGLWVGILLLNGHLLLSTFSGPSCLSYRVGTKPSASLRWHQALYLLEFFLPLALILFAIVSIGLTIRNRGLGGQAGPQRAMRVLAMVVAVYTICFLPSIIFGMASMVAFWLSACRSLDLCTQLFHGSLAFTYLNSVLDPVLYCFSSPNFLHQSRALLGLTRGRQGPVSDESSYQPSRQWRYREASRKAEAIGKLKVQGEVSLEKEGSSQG

This data set has as its target OXE receptor (Homo sapiens, UniProt Q8TDS5). As to conditions: read-out: IC50, previously disclosed/reported; previously described values for V230 and its enantiomers; cited from earlier work.

As for `CCCCCCc1c(C(=O)C[C@H](C)CC(=O)O)c2cc(Cl)ccc2n1C` [Compound V230], the IC50 is 0.006 µM. Turning to `CCCCCCc1c(C(=O)C[C@@H](C)CC(=O)O)c2cc(Cl)ccc2n1C`, the IC50 is 2.73 µM.
